In patent US12507703B2, “Methods, devices and compositions for preserving human milk” (The Trustees of Princeton University, priority 2023, dated 2025):
Structures can show the parent of a compound that is named as a salt. Each block holds one molecule with its values, some of them ahead of it.

Test system: lipase
Experiment: Lipase/lipolysis assay (EnzChek Lipase Substrate, quenched BODIPY-fatty acid conjugate) on stored human milk; for Lipase (RFU): test concentration or dose not given here
Conditions: for Lipase (RFU): stored 1 week at −20° C.; for Hit in lipase inhibition screen (in words): approximately 2700 compound screen, human milk stored 1 week at −20° C., hit = RFU <400
[1] = compound added to fresh human milk, thawed at room temperature, RFU <400 considered a hit
[2] = Biolog PM4 compound added to fresh human milk, RFU <400 = hit
[3] = Biolog PM2a compound added to fresh human milk, RFU <400 = hit
[4] = Food-Sourced Compound Library compound added to fresh human milk, thawed at room temperature, RFU <400 considered a hit
[5] = Food Additive Library compound added to fresh human milk, thawed at room temperature, RFU of <400 considered a hit
[6] = Biolog PM1 compound added to fresh human milk, RFU <400 = hit
[7] = Biolog PM5 compound added to fresh human milk, RFU <400 = hit

Compound: C[C@H]1[C@H](C)CC[C@]2(C(=O)O)CC[C@]3(C)C(=CC[C@@H]4[C@@]5(C)CCC(=O)C(C)(C)[C@@H]5CC[C@]43C)[C@H]12 [Ursonic acid]
- Lipase (RFU) [1]: 960.3937 RFU

Compound: COc1ccccc1C=CC=O [Compound 2-Methoxycinnamaldehyde, 2-Methoxycinnamaldehyde]
- Lipase (RFU) [5]: 806.8366 RFU
- Lipase (RFU) [1]: 1103.02 RFU

Compound: CC1=CCC(C(C)C)=CC1 [γ-Terpinene]
- Lipase (RFU) [5]: 918.7096 RFU

Compound: Cc1ncc(C[n+]2csc(CCO)c2C)c(N)n1 [Thiamine monochloride]
- Lipase (RFU) [5]: 1054.494 RFU
- Lipase (RFU) [4]: 929.7058 RFU

Compound: C[C@H](O)C(=O)O [L-Lactic Acid]
- Lipase (RFU) [6]: 991.1422 RFU
- Lipase (RFU) [5]: 1144.294 RFU

Compound: NCC(O)c1ccc(O)cc1 (stereo not shown) [Octopamine (hydrochloride)]
- Lipase (RFU) [1]: 809.8041 RFU

Compound: O=S(=O)(O)CCO [2-Hydroxyethane Sulfonic Acid]
- Lipase (RFU) [2]: 784.5377 RFU

Compound: COC(=O)CCc1ccccc1 [Methyl 3-phenylpropanoate]
- Lipase (RFU) [5]: 889.7516 RFU

Compound: Cl.NCCCCNCCCN [Spermidine (hydrochloride)]
- Lipase (RFU) [1]: 1065.533 RFU

Compound: COc1ccc(OC)cc1 [1,4-Dimethoxybenzene]
- Lipase (RFU) [5]: 995.997 RFU
- Lipase (RFU) [1]: 1097.393 RFU

Compound: CCCCCCCCCC(O)CC(=O)O (stereo not shown) [3-Hydroxydodecanoic acid]
- Lipase (RFU) [1]: 1000.694 RFU

Compound: OC[C@@H](O)[C@@H](O)[C@@H](O)CO [Adonitol]
- Lipase (RFU) [6]: 916.8639 RFU

Compound: O=C(O)CN(CCN(CC(=O)O)CC(=O)O)CC(=O)O [Ethylenediaminetetraacetic acid]
- Lipase (RFU) [5]: 838.2328 RFU

Compound: N[C@@H](CCC(=O)O)C(=O)O [L-Glutamic acid (monosodium salt)]
- Lipase (RFU) [5]: 1153.122 RFU
- Lipase (RFU) [4]: 1136.789 RFU

Compound: O=C(O)CCCC(O)C(=O)O (stereo not shown) [2-Hydroxyadipic acid]
- Lipase (RFU) [1]: 1079.818 RFU

Compound: CC(C)=CCO [Compound 3-Methyl-2-buten-1-ol, 3-Methyl-2-buten-1-ol]
- Lipase (RFU) [5]: 1025.112 RFU

Compound: Cc1ccccc1C=O [Compound 2-Methylbenzaldehyde, 2-Methylbenzaldehyde]
- Lipase (RFU) [1]: 859.065 RFU

Compound: CCCC/C=C\CCCCCCCC(=O)O [Myristoleic acid]
- Lipase (RFU) [4]: 1060.378 RFU

Compound: CC(=O)c1cnccn1 [Acetylpyrazine]
- Lipase (RFU) [5]: 840.2329 RFU

Compound: CC(CCC(=O)O)CC(=O)O (stereo not shown) [3-Methyladipic acid]
- Lipase (RFU) [4]: 819.9749 RFU

Compound: CC(C)CCC[C@@H](C)[C@H]1CC[C@H]2[C@@H]3CC[C@H]4C[C@@H](O)CC[C@]4(C)[C@H]3CC[C@]12C [Compound 5α-Cholestan-3β-ol, 5α-Cholestan-3β-ol]
- Lipase (RFU) [1]: 1041.979 RFU

Compound: CCCCCCCCCC(C)O (stereo not shown) [Compound 2-Undecanol, 2-Undecanol]
- Lipase (RFU) [5]: 927.5465 RFU

Compound: CCCCCCCCCCCCCCCCCCCCCCC(=O)O [Tricosanoic acid]
- Lipase (RFU) [4]: 1039.233 RFU

Compound: CCOc1cc(C=O)ccc1O [Ethylvanillin]
- Lipase (RFU) [5]: 949.6167 RFU

Compound: CC1(C)S[C@@H]2[C@H](NC(=O)[C@H](N)c3ccc(O)cc3)C(=O)N2[C@H]1C(=O)O [Amoxicillin]
- Lipase (RFU) [1]: 971.1374 RFU

Compound: CCCCCC[C@@H](O)C/C=C\CCCCCCCC(=O)O [Ricinoleic acid]
- Lipase (RFU) [1]: 1165.621 RFU

Compound: O=C(C=Cc1ccccc1)OCc1ccccc1 [Benzyl cinnamate]
- Lipase (RFU) [5]: 969.7584 RFU
- Lipase (RFU) [4]: 938.2773 RFU

Compound: O=C(O)CCc1cnc[nH]1 [Imidazole-5-propionic acid]
- Lipase (RFU) [4]: 1084.262 RFU

Compound: O=C(O)CO [Glycolic Acid]
- Lipase (RFU) [6]: 806.0101 RFU

Compound: CC12CCC(CC1=O)C2(C)C (stereo not drawn) [(+)-Camphor]
- Lipase (RFU) [5]: 881.1343 RFU

Compound: N=C(N)N [Guanidine (hydrochloride)]
- Lipase (RFU) [4]: 1252.71 RFU

Compound: Nc1ncnc2c1ncn2[C@H]1C[C@H](O)[C@@H](CO)O1 [2′-Deoxy Adenosine]
- Lipase (RFU) [6]: 947.0571 RFU
- Lipase (RFU) [7]: 374.7843 RFU
- Hit in lipase inhibition screen (in words): significantly inhibited lipase activity

Compound: O=C(O)C(=O)O [Oxalic Acid]
- Lipase (RFU) [3]: 973.8306 RFU
- Lipase (RFU) [1]: 839.6453 RFU

Compound: c1coc(CNc2ncnc3[nH]cnc23)c1 [Kinetin]
- Lipase (RFU) [4]: 1069.815 RFU

Compound: O=c1oc2cc(O)ccc2c2oc3cc(O)ccc3c12 [Coumestrol]
- Lipase (RFU) [1]: 869.5976 RFU

Compound: NC(CCCC(N)C(=O)O)C(=O)O (stereo not shown) [2,6-Diaminoheptanedioic acid]
- Lipase (RFU) [1]: 846.2971 RFU

Compound: NCCCC(=O)O [γ-Aminobutyric acid]
- Lipase (RFU) [1]: 759.3982 RFU

Compound: Nc1ncnc2c1ncn2[C@@H]1O[C@H](COP(=O)(O)O)[C@@H](O)[C@H]1O [Adenosine-5′-monophosphate]
- Lipase (RFU) [2]: 943.1275 RFU

Compound: N[C@@H](CCSSCC[C@H](N)C(=O)O)C(=O)O [L-Homocystine]
- Lipase (RFU) [4]: 1056.037 RFU

Compound: CCCCC(C)C(=O)O (stereo not shown) [2-Methylhexanoic acid]
- Lipase (RFU) [5]: 923.3324 RFU

Compound: O=C(O)CCCCCCCCCCCC(=O)O [Tridecanedioic acid]
- Lipase (RFU) [1]: 1127.183 RFU

Compound: N[C@@H](CC(=O)O)C(=O)O [(−)-Aspartic acid]
- Lipase (RFU) [4]: 911.1368 RFU

Compound: S=C=NCc1ccccc1 [Benzyl isothiocyanate]
- Lipase (RFU) [5]: 729.6809 RFU
- Lipase (RFU) [4]: 910.0522 RFU

Compound: C=CCc1ccc(O)c(OC)c1 [Eugenol]
- Lipase (RFU) [5]: 927.4764 RFU

Continued, values first:

- Lipase (RFU) [2]: 909.0878 RFU
Compound: O=c1ccn([C@@H]2O[C@H](CO)[C@@H](O)[C@H]2OP(=O)(O)O)c(=O)[nH]1 [Uridine-2′-monophosphate]

- Lipase (RFU) [1]: 919.1732 RFU
Compound: COc1ccc(CC(=O)O)cc1 [2-(4-Methoxyphenyl)acetic acid]

- Lipase (RFU) [3]: 615.1658 RFU
Compound: CC(=O)N[C@H]1C(O)O[C@H](CO)[C@H](O)[C@@H]1O (stereo partly drawn) [N-Acetyl-D-Galactosamine]

- Lipase (RFU) [4]: 866.3788 RFU
Compound: O=C(O)c1ccc(C(=O)O)cc1 [Terephthalic acid]

- Lipase (RFU) [4]: 1058.345 RFU
Compound: C[C@]12CC[C@@H]3c4ccc(O)cc4CC[C@H]3[C@@H]1C[C@@H](O)[C@@H]2O [Estriol]

- Lipase (RFU) [5]: 1019.642 RFU
Compound: O=C1NS(=O)(=O)c2ccccc21 [Saccharin]

- Lipase (RFU) [1]: 869.1073 RFU
Compound: COc1cc2c(=O)c(-c3ccc(O)cc3)coc2cc1O [Glycitein]

- Lipase (RFU) [1]: 940.1869 RFU
Compound: COc1ccc2c(c1OC)O[C@H]1c3ccc(O)cc3OC[C@@H]21 [Methylnissolin]

- Lipase (RFU) [1]: 750.2216 RFU
Compound: O=C(O)Cc1ccc(O)cc1 [4-Hydroxyphenylacetic acid]

- Lipase (RFU) [1]: 1038.27 RFU
Compound: O=Cc1ccc(CO)o1 [Compound 5-Hydroxymethylfurfural, 5-Hydroxymethylfurfural]

- Lipase (RFU) [1]: 846.7809 RFU
Compound: CC(=O)N[C@H]1C(O)O[C@H](CO)[C@@H](O[C@@H]2O[C@H](CO)[C@H](O)[C@H](O)[C@H]2O)[C@@H]1O (stereo partly shown) [N-Acetyllactosamine]

- Lipase (RFU) [4]: 718.2388 RFU
Compound: O=C(O)c1cc(=O)c2ccccc2[nH]1 [Kynurenic acid]

- Lipase (RFU) [1]: 1094.778 RFU
Compound: C[C@@H]1O[C@@H](OC[C@H]2O[C@@H](Oc3cc(O)c4c(c3)O[C@H](c3ccc(O)c(O)c3)CC4=O)[C@H](O)[C@@H](O)[C@@H]2O)[C@H](O)[C@H](O)[C@H]1O [Eriocitrin]

- Lipase (RFU) [2]: 952.4768 RFU
Compound: N[C@@H](COP(=O)(O)O)C(=O)O [O-Phospho-L-Serine]

- Lipase (RFU) [1]: 840.5751 RFU
Compound: O=C(O)c1ccc(C(=O)O)o1 [2,5-Furandicarboxylic acid]

- Lipase (RFU) [2]: 835.9772 RFU
- Lipase (RFU) [1]: 642.3973 RFU
Compound: Nc1ncnc2c1ncn2[C@@H]1O[C@H](CO)[C@@H](O)[C@H]1OP(=O)(O)O [Adenosine-2′-monophosphate]

- Lipase (RFU) [4]: 933.0337 RFU
Compound: CO[C@@H]1[C@H](O)[C@@H](CO)O[C@H]1n1cnc2c(N)ncnc21 [2′-O-Methyladenosine]

- Lipase (RFU) [5]: 929.9843 RFU
Compound: O=C(O)C=Cc1ccccc1O [2-Hydroxycinnamic acid]

- Lipase (RFU) [1]: 1073.817 RFU
Compound: NC(=O)NC1NC(=O)NC1=O (stereo not shown) [Allantoin]

- Lipase (RFU) [4]: 793.4388 RFU
Compound: COc1cc(C(=O)O)cc(OC)c1O [Syringic acid]

- Lipase (RFU) [5]: 1089.709 RFU
- Lipase (RFU) [1]: 967.7025 RFU
Compound: C[C@H](CCC(=O)NCC(=O)O)[C@H]1CC[C@H]2[C@@H]3[C@H](O)C[C@@H]4C[C@H](O)CC[C@]4(C)[C@H]3C[C@H](O)[C@]12C [Glycocholic acid (sodium)]

- Lipase (RFU) [1]: 1052.094 RFU
Compound: Cc1cccc(O)c1O [Compound 3-Methylcatechol, 3-Methylcatechol]

- Lipase (RFU) [1]: 921.2732 RFU
Compound: O=Cc1cc(O)ccc1O [2,5-Dihydroxybenzaldehyde]

- Lipase (RFU) [6]: 1197.545 RFU
Compound: O=C(CO)[C@@H](O)[C@H](O)[C@H](O)COP(=O)(O)O [D-Fructose-6-Phosphate]

- Lipase (RFU) [5]: 984.2536 RFU
Compound: O=C(OCc1ccccc1)c1ccccc1 [Benzyl benzoate]

- Lipase (RFU) [1]: 1043.43 RFU
Compound: COc1cc(C(C)=O)ccc1O [Apocynin]

- Lipase (RFU) [1]: 812.9137 RFU
Compound: O=c1[nH]c(=O)c2nccnc2[nH]1 [Pteridine-2,4(1H,3H)-dione]

- Lipase (RFU) [6]: 1022.153 RFU
Compound: Nc1ncnc2c1ncn2[C@@H]1O[C@H](CO)[C@@H](O)[C@H]1O [AdenosineAcid]

- Lipase (RFU) [7]: 263.369 RFU
- Hit in lipase inhibition screen (in words): significantly inhibited lipase activity
Compound: OC[C@H]1O[C@@H](n2cnc3c(O)ncnc32)C[C@@H]1O [2′-Deoxy Inosine]

- Lipase (RFU) [5]: 842.3693 RFU
Compound: COc1cc(/C=C/C(=O)O)ccc1O.[Na] [Ferulic acid (sodium)]

- Lipase (RFU) [1]: 865.2266 RFU
Compound: Cc1cc(O)c2c(c1)C(=O)c1cc(O)cc(O)c1C2=O [Emodin]
